# Source: PubChem BioAssay AID1865 (National Center for Advancing Translational Sciences (NCATS), 2009)
# The list shows a part of the results, in another mix than the full data. Active and inactive are the calls of the source. Calls follow the shape of the dose curve; as a rule, active = well fitted activation curve with a large enough effect; inconclusive = small, poorly fitted or top-dose-only effect; inactive = flat fitted curve, though single readings scatter.
# Test: Quantitative High-Throughput Screen for Regulators of Epigenetic Control; also: % of control where 0% means no effect; nearly all actives have a fitted effect of over 60% in size
# Settings: murine LDR cells, GFP reporter derepression, 30 h; at 53.9 µM (top of the series) unless noted
# From the text: NIH Molecular Libraries Screening Centers Network [MLPCN] NIH Chemical Genomics Center [NCGC] MLSCN Grant: 1 X01 MH079860-01 Assay Provider: Elisabeth D. Martinez, University of Texas SW Medical Center NCGC Assay Overview: The Locus Derepression (LDR) assay detects the derepression or induction of a GFP reporter that is stably integrated in a genomic region of murine cells that is presumably silenced. Transcription of the GFP reporter is controlled by a CMV promoter, which normally is constitutively active. However, this cell line, termed LDR, was selected for lack of constitutive production of GFP. GFP production can be induced by incubating the cells with histone deacetylase or DNA methyltransferase inhibitors (Martinez et al., 2006). Compounds that derepress or induce this reporter locus are identified by enumerating GFP positive cells using a laser-scanning microplate cytometer (Auld et al., 2006). This assay was screened against the MLSMR earlier (AID 597; (Johnson et al., 2008) and has been rescreened here against the expanded collection.
# NCGC Assay Protocol Summary: Three hundred LDR cells in 5 uL per well were dispensed into black, clear-bottom 1536-well plates. Twenty-three nL compound was transferred to the assay plate and cells were incubated 30 hours at 37 C. Medium was removed, cells were washed two times with PBS, and GFP-positive cells were enumerated as fluorescent objects between the sizes of 20 to 120 um width and depth using an Acumen Explorer. References Auld, DS, Johnson, RL, Zhang, YQ, Veith, H, Jadhav, A, Yasgar, A, Simeonov, A, Zheng, W, Martinez, ED, Westwick, JK, Austin, CP, Inglese, J (2006). Fluorescent protein-based cellular assays analyzed by laser-scanning microplate cytometry in 1536-well plate format. Methods Enzymol 414: 566-89. Johnson, RL, Huang, W, Jadhav, A, Austin, CP, Inglese, J, Martinez, ED (2008). A quantitative high-throughput screen identifies potential epigenetic modulators of gene expression. Anal Biochem 375: 237-48. Martinez, ED, Dull, AB, Beutler, JA, Hager, GL (2006). High-content fluorescence-based screening for epigenetic modulators. Methods Enzymol 414: 21-36.
row,SMILES,GFP activation
1,O=[N+]([O-])c1cc([N+](=O)[O-])c(-n2nnc3ccccc32)c([N+](=O)[O-])c1,inactive: 3.39%
2,Cc1nc2ccc3ccccc3c2s1.O=[N+]([O-])c1cc([N+](=O)[O-])c(O)c([N+](=O)[O-])c1,inactive: 2.78%
3,O=[N+]([O-])c1cc([N+](=O)[O-])c(Nc2nnnn2CCO)c([N+](=O)[O-])c1,inactive: 1.08%
4,CP(=O)(Nc1ccc(SC(F)(F)F)cc1)Oc1ccccc1 (centres undefined),inactive: 3.88%
5,CCCOc1ccc(NP(C)(=O)Oc2ccc(Cl)cc2)cc1 (centres undefined),inactive: -0.111%
6,CN1CCCCC1COC(=O)C1(O)c2ccccc2CCc2ccccc21 (centres undefined),inactive: -0.917%
7,COc1ccccc1OP(C)(=O)Nc1c(C)cccc1C (centres undefined),inactive: -1.06%
8,CC1=NCCc2c1[nH]c1ccccc21.O=[N+]([O-])c1cc([N+](=O)[O-])c(O)c([N+](=O)[O-])c1,inactive: 0%
9,O=[N+]([O-])OCC(CO[N+](=O)[O-])(CO[N+](=O)[O-])CO[N+](=O)[O-],inactive: -4.62%
10,CCOC(=O)c1ccc(NP(C)(=O)Oc2cc(C)cc(C)c2)cc1 (centres undefined),inactive: 0%
11,Cc1cc(C)cc(OP(C)(=O)Nc2ccc(C)cc2C)c1 (centres undefined),inactive: -1%
12,COc1ccccc1OP(C)(=O)Nc1cccc(Br)c1 (centres undefined),inactive: -3.85%
13,Cc1ccc(C)c(NP(C)(=O)Oc2ccccc2)c1 (centres undefined),inactive: -1.14%
14,CP(=O)(Nc1cccc(Br)c1)Oc1ccccc1 (centres undefined),inactive: -0.494%
15,Cc1cc(C)cc(OP(C)(=O)Nc2ccccn2)c1 (centres undefined),inactive: 0%
16,CCN(CC)CCCOC(=O)C(O)(c1ccccc1)c1ccccc1,inactive: -0.189%
17,O=[N+]([O-])c1ccc2c(c1)C=Nc1ccccc1O2,inactive: 2.94%
18,Cc1cccc(C)c1OP(C)(N)=O (centres undefined),inactive: -2.56%
19,Cc1cc(C)cc(OP(C)(N)=O)c1 (centres undefined),inactive: 0%
20,COc1ccccc1OP(C)(=O)Nc1cc(Cl)ccc1C (centres undefined),inactive: 1.7%

row,SMILES,GFP activation
1,COc1ccc(OP(C)(=O)Nc2cccc(F)c2)cc1 (centres undefined),inactive: -4.55%
2,COc1ccccc1OP(C)(=O)Nc1ccc(C)cc1 (centres undefined),inactive: -2.64%
3,Cc1ccc(NP(C)(=O)Oc2ccccc2)c(C)c1 (centres undefined),inactive: 1.9%
4,CCOC(=O)c1ccc(NP(C)(=O)Oc2ccccc2)cc1 (centres undefined),inactive: -5.11%
5,CP(=O)(Nc1ccccc1Br)Oc1ccccc1 (centres undefined),inactive: -3.24%
6,COc1ccccc1OP(C)(=O)Nc1ccccc1 (centres undefined),inactive: 0%
7,CP(=S)(Nn1cnnc1)Oc1ccccc1 (centres undefined),inactive: -1.08%
8,CCc1ccc(OP(C)(=O)N2CCN(c3ccc([N+](=O)[O-])cc3)CC2)cc1 (centres undefined),inactive: 0.0549%
9,CP(=O)(NC(=O)Nc1ccccc1)Oc1ccccc1 (centres undefined),inactive: -1.22%
10,Cc1cc(C)cc(OP(C)(=O)Nc2ccc(SC(F)(F)F)cc2)c1 (centres undefined),inactive: -0.99%
11,CP(=O)(Nc1ccc(SC(F)(F)F)cc1)Oc1ccc(Cl)cc1 (centres undefined),inactive: -0.417%
12,Cc1cccc(C)c1OP(C)(=O)Nc1ccc(SC(F)(F)F)cc1 (centres undefined),inactive: -0.0192%
13,CP(=O)(Oc1ccccc1)OC(c1ccccc1)C(F)(F)F (centres undefined),inactive: -0.146%
14,CP(=O)(Nc1ccccn1)Oc1ccc(Cl)cc1 (centres undefined),inactive: -2.22%
15,CCOC(=O)c1ccc(NP(C)(=O)Oc2ccc(OC)cc2)cc1 (centres undefined),inactive: -1.04%
16,CCOP(C)(=S)SCC(=O)NC(C)C(=O)O (centres undefined),inactive: -5.36%
17,COc1ccccc1OP(C)(=O)Nc1c(C)n(C)n(-c2ccccc2)c1=O (centres undefined),inactive: 0.0168%
18,O=C(OCCCN1CCCC1)C(O)(c1ccccc1)C1CCCCC1 (centres undefined),inactive: -1.08%
19,OCCSCCO,inactive: 5.1%
20,CP(=O)(Oc1ccccc1)N1CCOC1=O (centres undefined),inactive: 4.42%

row,SMILES,GFP activation
1,CCc1ccc(OP(C)(=O)Nc2cccnc2)cc1 (centres undefined),inactive: -1.5%
2,CCN(CC)CC(O)COC(=O)C(O)(c1ccccc1)C1CCCCC1 (centres undefined),inactive: -1.08%
3,COc1ccc(OP(C)(=O)Nc2ccc(Br)cc2)cc1 (centres undefined),inactive: 0%
4,N#[O+].[C-]#N.[C-]#N.[C-]#N.[C-]#N.[C-]#N.[Fe+2].[Na+].[Na+],inactive: -1.22%
5,CN(C)C(=O)c1c([N+](=O)[O-])cc([N+](=O)[O-])cc1[N+](=O)[O-],inactive: -1.05%
6,CC(C)(C)c1ccc(OP(C)(=O)O)cc1,inactive: 0.781%
7,COc1ccccc1OP(C)(=O)Nc1ccccc1Br (centres undefined),inactive: -0.381%
8,CP(=O)(Nc1ccc(Cl)cc1)Oc1ccc(F)cc1 (centres undefined),inactive: 3.77%
9,CCOC(=O)c1ccc(NP(C)(=O)Oc2ccc(Cl)cc2)cc1 (centres undefined),inactive: -1.59%
10,CP(=O)(OC12CC3CC(CC(C3)C1)C2)OC12CC3CC(CC(C3)C1)C2,inactive: 4.17%
11,C/C1=C2N=C(/C=C3N=C(/C(C)=C4\[N-][C@@](C)([C@H]5N=C1[C@@](C)(CCC(=O)NC[C@H](C)OP(=O)([O-])O[C@@H]1[C@H](O)[C@H](n6cnc7cc(C)c(C)cc76)O[C@@H]1CO)[C@@H]5CC(N)=O)[C@](C)(CC(N)=O)[C@H]4CCC(N)=O)[C@@](C)(CC(N)=O)[C@@H]\3CCC(N)=O)C(C)(C)[C@@H]/2CCC(N)=O.[C-]#N.[Co+3],inactive: 2.74% [at 16.9 µM]
12,COc1ccccc1OP(C)(=O)Nc1ccc(C)c(C)c1 (centres undefined),inactive: -2.94%
13,COc1ccc(OP(C)(=O)Nc2ccccc2Br)cc1 (centres undefined),inactive: -1.04%
14,Cc1cc(C)cc(OP(C)(=O)Nc2cccc(C(F)(F)F)c2)c1 (centres undefined),inactive: 5.14%
15,CP(=O)(OCCOc1ccccc1)OCCOc1ccccc1,inactive: -1.63%
16,CP(=O)(Nc1ccc(Cl)cc1Cl)Oc1ccccc1 (centres undefined),inactive: -0.292%
17,Cc1nc2ccc3ccccc3c2o1.O=[N+]([O-])c1cc([N+](=O)[O-])c(O)c([N+](=O)[O-])c1,inactive: -1.81%
18,COc1ccc(OP(C)(=O)Nc2ccccn2)cc1 (centres undefined),inactive: -3.87%
19,CN(C)CCOC(=O)C(O)(c1ccccc1)C1CCCC1 (centres undefined),inactive: -1.08%
